{"sequences": {"note": "Chains of the proteins cited; added tags and fusions are not shown.", "UniProt Q13148, whole entry": "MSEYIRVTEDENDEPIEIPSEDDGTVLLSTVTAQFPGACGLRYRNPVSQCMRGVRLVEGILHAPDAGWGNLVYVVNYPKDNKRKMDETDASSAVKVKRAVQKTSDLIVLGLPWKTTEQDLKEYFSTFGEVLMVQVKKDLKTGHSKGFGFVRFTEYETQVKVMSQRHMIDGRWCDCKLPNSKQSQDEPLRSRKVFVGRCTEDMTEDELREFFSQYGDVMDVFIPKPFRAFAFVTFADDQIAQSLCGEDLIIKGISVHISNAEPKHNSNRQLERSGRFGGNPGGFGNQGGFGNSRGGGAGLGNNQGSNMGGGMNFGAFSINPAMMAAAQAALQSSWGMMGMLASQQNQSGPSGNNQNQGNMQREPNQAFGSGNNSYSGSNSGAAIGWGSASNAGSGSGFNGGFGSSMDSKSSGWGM"}, "source": "patent US20220388962A1", "about": "(Biohaven Therapeutics Ltd., priority 2019, published 2022)", "target": "TDP-43 (Homo sapiens, UniProt Q13148)", "assay": "TDP-43-DNA alpha-screen assay (bt-TAR-32 displacement)", "conditions": "read-out: Activity (IC50) in the TDP-43-DNA alpha-screen assay; bt-TAR-32 0.125 nM, 15 ng/ml TDP-43; tested form: HCl (trihydrochloride)", "protocol": "Alpha-screen assay: Displacement of bt-TG6 binding was measured using AlphaScreen technology as previously described (Cassel, J. A. et al., Journal of Biomolecular Screening, 2010, 15, 1099-1106; Cassel, J. A.; Reitz, A. B. et al. The effects of small molecule inhibitors of nucleic acid binding to TDP-43 on TDP-43 metabolism and function. Biochimie, 2012, 94, 1974-1981).\nTest compounds were diluted in assay buffer (25 mM Tris [pH 7.4], 0.1% bovine serum albumin [BSA], 0.1% Triton X-100) at 4× the desired final concentration. Dilutions of test compound (50 to 0.02 μM in half-log dilutions with a no compound control well) were pre-incubated with TDP-43 (5 μl of 60 ng/mL) pre-bound to AlphaScreen® anti-GST acceptor beads (5 μl of 40 μg/mL) in 15 μl volume for 30 minutes at 23° C. with shaking. Assays were initiated by the addition of 5 μl bt-TAR-32 (5′-CTGCTTTTTGCCTGTACTGGGTCTCTGTGGTT-3′) 0.5 nM pre-bound to AlphaScreen® strepavidin donor beads (40 μg/mL). After incubation in the dark at 23° C. for 90 minutes with shaking, the AlphaScreen® signal was measured on a Synergy 2 plate reader (BioTek, Winooski, Vt.). IC50 values were determined from nonlinear regression fits of the data to a Sigmoidal dose response variable slope model in GraphPad Prism. […]", "data": [{"smiles": "COc1ccc(-c2cc(NCCCN(C)CCCN)c3cc(OC)c(OC)cc3n2)cc1", "note": "[Example 94]", "values": [{"measurement": "IC50", "result": 50, "unit": "nM"}]}]}
